Data as given in patent US20230101403A1, “METHOD OF TREATING OR AMELIORATING CANCERS DRIVEN BY RECEPTOR TYROSINE KINASE FUSION ONCOGENES, AND COMPOSITIONS FOR THE SAME” (THE TRUSTEES OF THE UNIVERSITY OF PENNSYLVANIA, priority 2021, published 2023).

Test system: ppErk, Beas2B cells expressing EML4-ALK(V1)
Type: cell-based
Conditions: Beas2B transiently expressing EML4-ALK; pre-incubation 1 μM; EGF

Compound: C[C@@H](Oc1cc(-c2cnn(C3CCNCC3)c2)cnc1N)c1c(Cl)ccc(F)c1Cl [crizotinib]
- EML4-ALK-induced suppression of EGFR signaling (ppErk): reversed EML4-ALK-induced suppression of EGFR signaling
